Data from patent US11021511B2, “Cyclic dinucleotides as sting agonists” (Janssen Biotech, Inc., priority 2017, dated 2021).

System: THP1-Blue ISG cells
Assay: Human interferon-β induction assay
Settings: total cumulative IFN-β induction over the dose range tested (0.78 to 50 μM) in THP-1 Blue cells; tested form: Na salt

SMILES: COC1C2COP(=O)(O)OC3C4OCC3(COP(=O)(O)OC1C(n1cnc3c(=O)[nH]c(N)nc31)O2)OC4n1cnc2c(N)ncnc21 (stereo not shown)
- human IFN-β (ranking value): 821
